Consider 3 molecules from patent US10995088B2, “Methylamine derivatives as lysysl oxidase inhibitors for the treatment of cancer” (The Institute of Cancer Research: Royal Cancer Hospital, priority 2016, dated 2021).

By UniProt entry, the sequences of proteins in these tests, tags left out. Residues count along the entry.
UniProt Q9TRC7, 25-755 limits assumed: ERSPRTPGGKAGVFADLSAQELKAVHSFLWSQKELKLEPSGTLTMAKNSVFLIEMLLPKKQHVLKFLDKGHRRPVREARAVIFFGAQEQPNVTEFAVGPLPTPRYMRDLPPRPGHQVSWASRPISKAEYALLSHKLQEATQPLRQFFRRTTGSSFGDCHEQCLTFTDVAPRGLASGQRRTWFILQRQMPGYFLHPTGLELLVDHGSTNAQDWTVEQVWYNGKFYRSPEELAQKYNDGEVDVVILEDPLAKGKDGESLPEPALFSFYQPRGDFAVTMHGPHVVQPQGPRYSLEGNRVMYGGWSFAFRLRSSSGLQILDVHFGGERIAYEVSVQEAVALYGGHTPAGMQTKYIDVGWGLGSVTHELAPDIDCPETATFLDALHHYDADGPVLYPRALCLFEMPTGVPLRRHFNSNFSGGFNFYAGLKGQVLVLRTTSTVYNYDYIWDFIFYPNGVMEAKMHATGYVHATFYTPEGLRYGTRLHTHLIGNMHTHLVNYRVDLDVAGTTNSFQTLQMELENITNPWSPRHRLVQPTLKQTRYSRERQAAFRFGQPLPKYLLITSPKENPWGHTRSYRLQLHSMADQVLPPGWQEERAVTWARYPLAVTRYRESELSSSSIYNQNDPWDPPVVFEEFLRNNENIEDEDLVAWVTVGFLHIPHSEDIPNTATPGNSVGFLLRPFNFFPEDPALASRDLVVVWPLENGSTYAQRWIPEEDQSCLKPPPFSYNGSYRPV
UniProt P27338, whole entry: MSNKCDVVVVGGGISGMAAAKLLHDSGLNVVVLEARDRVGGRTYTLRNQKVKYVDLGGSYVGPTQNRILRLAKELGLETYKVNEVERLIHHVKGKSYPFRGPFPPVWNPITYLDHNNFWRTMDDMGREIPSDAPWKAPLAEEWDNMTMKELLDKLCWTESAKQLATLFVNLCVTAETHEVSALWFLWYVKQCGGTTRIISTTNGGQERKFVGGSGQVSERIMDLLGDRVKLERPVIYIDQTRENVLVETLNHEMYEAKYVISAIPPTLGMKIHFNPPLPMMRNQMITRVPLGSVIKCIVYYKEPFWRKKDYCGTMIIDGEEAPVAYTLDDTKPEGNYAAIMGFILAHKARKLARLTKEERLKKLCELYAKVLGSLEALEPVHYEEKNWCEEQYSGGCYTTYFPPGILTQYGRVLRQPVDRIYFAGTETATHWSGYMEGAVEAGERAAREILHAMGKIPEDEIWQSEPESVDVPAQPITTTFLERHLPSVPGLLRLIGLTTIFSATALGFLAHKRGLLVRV
UniProt P21397, whole entry: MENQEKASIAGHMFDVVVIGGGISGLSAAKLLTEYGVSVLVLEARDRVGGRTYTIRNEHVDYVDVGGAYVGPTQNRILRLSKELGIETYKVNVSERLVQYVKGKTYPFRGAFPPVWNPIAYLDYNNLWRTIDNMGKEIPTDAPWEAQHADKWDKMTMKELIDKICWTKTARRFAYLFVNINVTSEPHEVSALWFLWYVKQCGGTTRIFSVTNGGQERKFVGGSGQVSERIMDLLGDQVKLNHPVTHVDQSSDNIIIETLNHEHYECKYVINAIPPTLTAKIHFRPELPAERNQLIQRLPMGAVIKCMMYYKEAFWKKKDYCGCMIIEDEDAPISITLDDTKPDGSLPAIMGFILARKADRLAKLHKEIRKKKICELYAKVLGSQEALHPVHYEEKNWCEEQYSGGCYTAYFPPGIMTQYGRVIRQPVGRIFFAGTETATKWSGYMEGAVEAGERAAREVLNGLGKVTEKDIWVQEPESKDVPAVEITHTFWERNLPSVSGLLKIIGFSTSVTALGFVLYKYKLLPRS

The target in one assay is DAO (Sus scrofa, UniProt Q9TRC7). The following applies: read-out: DAO IC50.
A further assay deals with MAO-B (Homo sapiens (Human), UniProt P27338). Description: Monoamine oxidase B (MAO-B) selectivity assay (MAO-Glo).
In another assay the target is MAO-A (Homo sapiens (Human), UniProt P21397). In words: Monoamine oxidase A (MAO-A) selectivity assay (MAO-Glo). Type of assay: biochemical.

For the molecule `CS(=O)(=O)c1cc(-c2ccccc2)cc(S(=O)(=O)c2cnc(CN)s2)c1`, the half-inhibitory concentration (IC50) on DAO was above 100 µM.
Take `CCc1cc(-c2ccccc2)cc(S(=O)(=O)c2cnc(CN)s2)c1`: the IC50 on DAO is above 100 µM.
On to `CS(=O)(=O)c1cc(-c2ccccc2)cc(S(=O)(=O)c2ccc(CN)s2)c1`, for which the MAO-B inhibition entry on MAO-B is given as “neither inhibits”. Also, the MAO-A inhibition entry on MAO-A was “neither inhibits”.
